Laboratory results: PMC4735769 (Cancer Medicine, 2015)

Experiment: sorafenib plasma pharmacokinetics (LC-MS/MS, noncompartmental)
Type: in vivo, human
Details: steady state, with topotecan

## CNC(=O)c1cc(Oc2ccc(NC(=O)Nc3ccc(Cl)c(C(F)(F)F)c3)cc2)ccn1 [Sorafenib]
Cycle 2, day 1, 150 mg/m^2 (n = 6)
  C max: 6400 ± 5400 ng/mL
Cycle 2, day 1, 200 mg/m^2 (n = 1)
  T max: 1 h
